Reference: PubChem BioAssay AID743126 (The Scripps Research Institute Molecular Screening Center, 2013)
The entries are a selection whose mix differs from that of the whole data set. Some structures show a salt or complex split into parts, the way the source records it. The source made the active and inactive calls.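 Rule for the calls: active = inhibition above mean plus 3 SD of compounds lying within the high and low control bounds (cut at about 19% in these data); inactive = the rest.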

Sequences of proteins named here, by UniProt entry; tags and fusion partners are left off.
UniProt Q9NZ20, whole entry: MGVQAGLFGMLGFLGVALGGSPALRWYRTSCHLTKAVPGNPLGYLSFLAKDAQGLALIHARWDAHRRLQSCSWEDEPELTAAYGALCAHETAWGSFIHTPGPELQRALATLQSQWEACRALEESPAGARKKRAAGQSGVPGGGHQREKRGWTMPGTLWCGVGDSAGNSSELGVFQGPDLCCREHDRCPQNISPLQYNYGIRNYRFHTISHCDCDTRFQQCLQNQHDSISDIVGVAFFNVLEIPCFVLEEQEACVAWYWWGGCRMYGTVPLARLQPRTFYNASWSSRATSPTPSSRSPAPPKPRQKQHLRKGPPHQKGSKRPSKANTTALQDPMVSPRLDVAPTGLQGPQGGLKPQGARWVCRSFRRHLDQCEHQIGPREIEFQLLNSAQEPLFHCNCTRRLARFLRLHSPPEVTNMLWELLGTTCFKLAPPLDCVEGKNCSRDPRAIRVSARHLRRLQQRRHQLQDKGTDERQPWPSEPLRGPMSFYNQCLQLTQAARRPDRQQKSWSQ

What follows are compounds tested against Group 3 secretory phospholipase A2 (Homo sapiens) (UniProt Q9NZ20) (assay: human group III sPLA2 inhibitors, primary screen, biochemical, QFRET, BODIPY PC-A2 liposome substrate (AID 743126;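 note: 0% = median of test compound wells and 100% = no enzyme DMSO wells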)). Conditions: QFRET BODIPY PC-A2 liposome hydrolysis, fluorescence; at 12.2 µM; active compounds read high.

Compound | inhibition
COc1ccc(OP(C)(=O)Nc2ccccn2)cc1 (stereo unspecified) | inactive: 1.06%
COc1ccccc1OP(C)(=O)Nc1ccc(Br)cc1 (stereo unspecified) | inactive: -2.98%
CCc1ccc(OP(C)(=O)O)cc1 | inactive: 1.35%
CP(=O)(Nc1ccccn1)Oc1ccccc1 (stereo unspecified) | inactive: -1.84%
COc1ccccc1OP(C)(=O)Nc1ccc(C)cc1C (stereo unspecified) | inactive: 1.08%
O=[N+]([O-])c1cc([N+](=O)[O-])c(Nc2ccccn2)c([N+](=O)[O-])c1 | inactive: -7%
Cc1c(NP(C)(=O)Oc2ccc(C(C)C)cc2)c(=O)n(-c2ccccc2)n1C (stereo unspecified) | inactive: -2.56%
COc1ccc(OP(C)(=O)Nc2ccccc2Br)cc1 (stereo unspecified) | inactive: 5.27%
COc1ccccc1OP(C)(=O)Nc1ccc(C)c(C)c1 (stereo unspecified) | inactive: 1.28%
O=C1C(O)=C([N+](=O)[O-])C(=O)C(O)=C1[N+](=O)[O-] | inactive: 6.8%
Cc1cc(C)cc(OP(C)(=O)Nc2cccc(C(F)(F)F)c2)c1 (stereo unspecified) | inactive: -7.04%
CP(=O)(OCCOc1ccccc1)OCCOc1ccccc1 | inactive: 6.6%
CCCCCCCCCCCCCCCC1C[N+](C)(C)CCOP(C)(=O)O1 (stereo unspecified) | inactive: 1.82%
CP(=O)(Nc1ccc(Cl)cc1Cl)Oc1ccccc1 (stereo unspecified) | inactive: 7.79%
COc1ccc(OP(C)(=O)Nc2ccc(SC(F)(F)F)cc2)cc1 (stereo unspecified) | inactive: 13.8%
CCOC(=O)c1ccc(NP(C)(=O)Oc2ccc(F)cc2)cc1 (stereo unspecified) | inactive: 4.05%
CCN(CC)CCCNc1ccccc1[N+](=O)[O-].O=[N+]([O-])c1cc([N+](=O)[O-])c(O)c([N+](=O)[O-])c1 | inactive: 1.27%
CCCCCOc1ccc(NP(C)(=O)Oc2ccc(Cl)cc2Cl)cc1 (stereo unspecified) | inactive: 1.92%
O=[N+]([O-])c1cc([N+](=O)[O-])c(OC2CCCCC2O)c([N+](=O)[O-])c1 (stereo unspecified) | inactive: 1.35%
CP(=O)(Nc1ccccc1)Oc1ccc(F)cc1 (stereo unspecified) | inactive: 2.35%
CCN(CC)CCCOC(=O)C(O)(c1ccccc1)C1CCCCC1 (stereo unspecified) | inactive: 7.23%

Compound | inhibition
Cc1c([N+](=O)[O-])cc([N+](=O)[O-])c(Br)c1[N+](=O)[O-] | inactive: -9.09%
CC(C)c1ccc(OP(C)(=O)Nc2ccc(SC(F)(F)F)cc2)cc1 (stereo unspecified) | inactive: -8.92%
CP(=O)(Nc1ccccc1F)Oc1ccccc1 (stereo unspecified) | inactive: 15.8%
O=[N+]([O-])c1cc([N+](=O)[O-])c(Nc2ccc(Cl)cc2)c([N+](=O)[O-])c1 | inactive: 4.67%
COc1ccc2c(c1O)-c1c(O)c(OC)cc3c1[C@H](C2)[N+](C)(C)CC3.O=[N+]([O-])c1cc([N+](=O)[O-])c([O-])c([N+](=O)[O-])c1[O-] | inactive: 1.26%
O=C(OCCN1CCN(CCOCc2ccccc2)CC1)C(O)(c1ccccc1)c1ccccc1 | inactive: -4.44%
O=C(OC1CN2CCC1CC2)c1ccc([N+](=O)[O-])cc1 (stereo unspecified) | inactive: 2.35%
CCOP(=O)(CC)OCC | inactive: 9.14%
CCOP(C)(=S)SCC(=O)NC(C)(CC)C(=O)O (stereo unspecified) | inactive: -6.71%
CP(=O)(Nc1ccc(SC(F)(F)F)cc1)Oc1ccc(F)cc1 (stereo unspecified) | inactive: -0.65%
O=[N+]([O-])c1cc([N+](=O)[O-])c(C(F)(F)F)c([N+](=O)[O-])c1O | inactive: -14%
Cc1ccccc1NP(C)(=O)Nc1ccccc1C | inactive: 0.85%
CP(=O)(Nc1ccc2c(c1)OCCO2)Oc1ccccc1 (stereo unspecified) | inactive: -4.48%
COc1ccc(NP(C)(=O)Oc2ccccc2OC)cc1 (stereo unspecified) | inactive: -0.56%
CN(C)CCOC(=O)C(O)(c1ccccc1)C1CCCCC1 (stereo unspecified) | inactive: 2.79%
COc1ccc(OP(C)(=O)Nc2cccc(Br)c2)cc1 (stereo unspecified) | inactive: 5.98%
Cc1c(C(c2ccc3c(c2)OCO3)c2c(C)n(C)n(-c3ccccc3)c2=O)c(=O)n(-c2ccccc2)n1C.O=[N+]([O-])c1cc([N+](=O)[O-])c(O)c([N+](=O)[O-])c1 | inactive: -2.04%
Cc1cc(-c2cccc3ccccc23)c(C)cn1.O=[N+]([O-])c1cc([N+](=O)[O-])c(O)c([N+](=O)[O-])c1 | inactive: -7.68%
O=[N+]([O-])c1cc([N+](=O)[O-])c(NCC2CCS(=O)(=O)C2)c([N+](=O)[O-])c1 (stereo unspecified) | inactive: 9.88%
O=[N+]([O-])c1ccc(OP2(=O)COCCO2)cc1 (stereo unspecified) | inactive: 1.98%
